The values that follow come from patent EP2987482A1, “Soluble and dispersible pharamaceutical deferasirox formulation” (Santa Farma Ilaç Sanayi A.S., priority 2014, dated 2016).

The conditions of data set [1]: at the physiological pH of the intestine; SmPC of Exjade® dispersible tablets; cited from earlier work.
A short description of data set [2]: Solubility of deferasirox in water from composition with sodium carbonate, dissolved with magnetic stirrer. It counts as physicochemical. Particulars: magnetic stirrer for 3 minutes. The protocol:
Table 1 below, without being limited to the compounds and their amounts mentioned, illustrates the pH values and solubility data of a pharmaceutical composition comprising 500 mg of deferasirox combined with various amounts of sodium carbonate in a suitable carrier when the said composition was dissolved using a magnetic stirrer for 3 minutes.

For data set [3] the following is noted: cited from earlier work.

Like-named read-outs stand apart in the source and are kept apart here.

Consider “4-[3,5-bis(2-hydroxyphenyl)-[1,2,4]triazol-1-yl]benzoic acid [deferasirox]”, for which the solubility – broadly, how much of the substance goes into solution per volume – in data set [1] was “about 40 mg/L”; in data set [3] (in water at 37°C), 38 µg/mL. The “Solubility of deferasirox in water” value in data set [2] (composition with 500 mg deferasirox and 40 mg sodium carbonate) was determined as 270 µg/mL; in data set [2] (composition with 500 mg deferasirox and 60 mg sodium carbonate), 460 µg/mL; in data set [2] (composition with 500 mg deferasirox and 100 mg sodium carbonate) it was 760 µg/mL; in data set [2] (composition with 500 mg deferasirox and 120 mg sodium carbonate), 900 µg/mL; in data set [2] (composition with 500 mg deferasirox and 140 mg sodium carbonate), 1030 µg/mL; in data set [2] (composition with 500 mg deferasirox and 160 mg sodium carbonate), 1090 µg/mL. Further, in data set [3] (deferasirox alone, without sodium carbonate), the “solubility of deferasirox alone” value is 40 µg/mL.
